By UniProt entry, the sequences of proteins in these tests, tags left out. Residues count along the entry.
UniProt P05067, 672-713: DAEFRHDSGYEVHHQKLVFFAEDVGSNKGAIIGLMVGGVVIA
UniProt P05067, 672-711: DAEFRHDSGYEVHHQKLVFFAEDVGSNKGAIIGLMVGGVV

According to paper PMC4254541 (Bioorganic & medicinal chemistry letters, 2014):

Experiments:
[1] = target: synthetic Aβ(1–42) fibrils (Homo sapiens, UniProt P05067); assay: Displacement of 5 nM [3H]-1a; format: binding; details: read-out: Aβ(1–42) EC50; displacement of 5 nM [3H]-1a from synthetic Aβ(1–42) fibrils
[2] = target: synthetic Aβ(1–40) fibrils (Homo sapiens, UniProt P05067); assay: Displacement of 5 nM [3H]-1a; format: binding; details: read-out: Aβ(1–40) EC50; displacement of 5 nM [3H]-1a from synthetic Aβ(1–40) fibrils

EC50 [1]: > 10 µM
EC50 [2]: > 10 µM
SMILES: Cc1ccc2c(c1)sc(-c1ccc(N(C)C)cc1)[n+]2C.[Cl-] [ThT, Thioflavine T]
